# Compounds with a hit are over-represented: about 16% of the library has one in this group of screens.
# miR-21 reporter = raises the signal of a miR-21 reporter | HeLa miR-21 FLuc reporter, luciferase, 48 h | Potency, µM (highest dose often 38.3 µM), for inactives: at the highest dose reporter change, positive = more light | 340,000 tested, under 10 active | AID 2288; active = well fitted rising curve with a large enough effect; inconclusive = small, poorly fitted or top-dose-only effect; inactive = no such curve, though single readings can be large or run the other way;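 also: % of control where 0% means no effect; miR-21 action dims this reporter so a rising signal means less miR-21 action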
#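 Using DMEM plus 10% FBS, HeLa miR-21-FLuc cells are incubated with test compounds (final up to about 40uM) for 48 hours; firefly luciferase signal is then imaged following reagent-mediated lysis.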
# TDP1 cell noCPT = qHTS for Inhibitors of human tyrosyl-DNA phosphodiesterase 1 (TDP1): qHTS in cells in absence of CPT; DT40 Tdp1-/- hTDP1 cells, no CPT, ATP luminescence, 48 h; Potency, µM (highest dose often 46.2 µM), without a hit: at the highest dose activity change, negative = growth inhibition, hits mostly inhibitors; 420,000 compounds, 15% hits; further: potency means the concentration at half of the fitted maximal effect; on the % scale 0 is the no-effect control and ±100 the full control effect; nearly all actives have a fitted effect of over 55% in size
#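 Compound effects on proliferation are scored in DT40 Tdp1-/-;hTDP1 cells in the absence of CPT. ATP levels (CellTiter-Glo luminescence) are recorded after a ≥48 hr, 37 °C incubation.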
# TDP1 inh = TDP1 (human) enzyme inhibition; Q9NUW8; recombinant TDP1, AlphaScreen DNA substrate cleavage; Potency, µM (titrated, usually from 130 µM), inactives show top-dose activity change, negative = inhibition, usual class: inhibitors; 350,000 compounds, 0.28% hits; further: potency means the concentration at half of the fitted maximal effect; on the % scale 0 is the no-effect control and ±100 the full control effect; nearly all actives have a fitted effect of over 40% in size
#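 Enzyme-compound mixtures sat 15 min at room temperature, followed by a 5 min reaction with 15 nM final substrate and 10 min with AlphaScreen beads. Recombinant human Tdp1 was used at 1 nM final.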
# DT40 TDP1 CPT = DT40-hTDP1 cell growth loss with CPT; chicken DT40 Tdp1-/-;hTDP1 cells + 20 nM CPT, ATP luminescence, 48 h; AID 686979; Potency, µM (doses to about 46.2 µM), without a hit: at the top dose activity change, negative = growth inhibition, actives largely listed as inhibitors; 420,000 compounds, 12% hits; further: potency means the concentration at half of the fitted maximal effect; on the % scale 0 is the no-effect control and ±100 the full control effect; nearly all actives have a fitted effect of over 55% in size
#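 Chicken DT40 Tdp1-/- cells stably complemented with human TDP1 were seeded at 400 cells/well in medium containing 20 nM camptothecin, exposed to pin-transferred compounds, and grown at 37 °C for at least 48 hr. Viability was read as ATP luminescence.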
# uPA surface inh = blocks generation of uPA at the cell surface; cell surface uPA generation assay, qHTS; Potency, µM (series often up to 38.3 µM), inactives show at the highest dose activity change, negative = inhibition, hits mostly inhibitors; 330,000 compounds, 0.31% hits; AID 540303; active means well fitted inhibition curve with a large enough effect; inconclusive means small, poorly fitted or top-dose-only effect; inactive means no such curve, though single readings can be large or run the other way; tested in mouse RAW 264.7 cells; further: potency means the concentration at half of the fitted maximal effect; on the % scale 0 is the no-effect control and ±100 the full control effect; nearly all actives have a fitted effect of over 55% in size
# Numbers without * were called inactive; ? = inconclusive; nt = no result given; [ ] = dose if it differs, or a comment. Unless noted, the call rests on the fitted dose curve; in most records, active means well fitted curve in the direction sought with a large enough effect; inconclusive means small, poorly fitted or top-dose-only effect, or another doubt; inactive means no such curve, though single readings can be large; an effect the other way counts as inactive or inconclusive.
SMILES,miR-21 reporter,TDP1 cell noCPT,TDP1 inh,DT40 TDP1 CPT,uPA surface inh
CCCC(=O)OCCNc1cc(SCc2ccco2)c2nonc2c1[N+](=O)[O-],18%,?,1%,?,2%
CC(=O)OCCCNc1cc(SCc2ccco2)c2nonc2c1[N+](=O)[O-],23%,?,-3%,21µM*,-10%
CCC(=O)OCCNc1cc(Sc2nc3ccccc3[nH]2)c2nonc2c1[N+](=O)[O-],?,2.9µM*,-6%,2.3µM*,-7%
CCCSc1cc(NCCOC(=O)CCC)c([N+](=O)[O-])c2nonc12,11%,4.6µM*,6%,2.6µM*,-6%
O=C(NC1CCN(S(=O)(=O)c2ccc(F)cc2)CC1)C1CCCCC1,-3%,0%,2%[0.0935 µM],0%,-5%
CCOc1ccc(CCNC(=O)c2ccc3c(c2)NC(=O)C2CCCN32)cc1OCC (centres undefined),-1%,nt,nt,nt,nt
COc1ccc(C(CNC(=O)C(CC(C)C)NS(=O)(=O)c2ccc(C)cc2)N2CCOCC2)cc1 (centres undefined),nt,-13%,1%,-7%,0%
c1nc(NCc2ccc3c(c2)OCO3)c2[nH]cnc2n1,nt,?,1%,?,nt
O=C(COc1ccc([N+](=O)[O-])cc1)Nc1ccc(C(=O)Nc2ccccc2C(=O)O)cc1,1%,0%,0%,0%,21%
CCCSc1cc(NCCOC(C)=O)c([N+](=O)[O-])c2nonc12,-11%,?,0%,-1%,2%
O=[N+]([O-])c1c(NCCCO)cc(Sc2nc3ccccc3s2)c2nonc12,8%,0.79µM*,6%,1.3µM*,nt
N#Cc1cccc(C#N)c1Oc1ccc(S(=O)(=O)Nc2ccc(Cl)cc2)cc1,17%,16µM*,1%,-62%,-7%
CCCCN(CC)CCCNC(=S)Nc1ccc2nc(N3CCN(C)CC3)cc(C)c2c1,-14%,16µM*,6%,?,-2%
CCCCN(CC)CCCNC(=S)Nc1ccc2nc(N3CCN(CC)CC3)cc(C)c2c1,-16%,16µM*,7%,?,0%
CCN1CCN(c2cc(C)c3cc(NC(=S)NCCCOC)ccc3n2)CC1,-1%,2%,nt,?,9%
CC(Cn1cncn1)C(=O)N1CCN(S(=O)(=O)c2ccccc2)CC1 (centres undefined),11%,1%,1%,-4%,3%
CCOC(=O)C1CCCN(C(=O)c2cc(S(=O)(=O)Nc3ccccc3OC)ccc2C)C1 (centres undefined),-1%,?,2%,-23%,-3%
COc1ccccc1NS(=O)(=O)c1cc(C(=O)N2CC(C)CC(C)C2)ccc1C (centres undefined),-2%,21µM*,3%,?,nt
Cc1ccccc1NS(=O)(=O)c1cc(C(=O)N2CCCC2)ccc1C,-9%,?,4%,-8%,2%
COc1ccc(C(=O)N2CCN(c3ccccn3)CC2)cc1,-2%,-8%,2%,-3%,1%

# In another format: 4 of the compounds above
# Below each compound: miR-21 reporter | TDP1 cell noCPT | TDP1 inh | DT40 TDP1 CPT | uPA surface inh
- N#Cc1cccc(C#N)c1Oc1ccc(S(=O)(=O)Nc2ccc(Cl)cc2)cc1
→ 17% | 16µM* | 1% | -62% | -7%
- CCCCN(CC)CCCNC(=S)Nc1ccc2nc(N3CCN(C)CC3)cc(C)c2c1
→ -14% | 16µM* | 6% | ? | -2%
- CCCCN(CC)CCCNC(=S)Nc1ccc2nc(N3CCN(CC)CC3)cc(C)c2c1
→ -16% | 16µM* | 7% | ? | 0%
- CCN1CCN(c2cc(C)c3cc(NC(=S)NCCCOC)ccc3n2)CC1
→ -1% | 2% | nt | ? | 9%

# Later entries.
SMILES,miR-21 reporter,TDP1 cell noCPT,TDP1 inh,DT40 TDP1 CPT,uPA surface inh
COc1ccccc1NS(=O)(=O)c1ccc(C)c(C(=O)N2CCN(c3ccc(O)cc3)CC2)c1,nt,13µM*,6%,15µM*,-6%
CCOC(=O)C1CCN(C(=O)c2ccc(S(=O)(=O)Nc3ccccc3OC)cc2)CC1,nt,?,0%,9.2µM*,?
COc1ccccc1NS(=O)(=O)c1ccc(C(=O)N2CCN(c3ccccn3)CC2)cc1,nt,13µM*,0%,23µM*,-3%
Clc1ccccc1/C=C/c1nc(-c2cccnc2)no1,-69%,-2%,nt,-3%,-17%
CCCS(=O)(=O)NC(=O)C1(C)CCN(C(=O)c2ccc(SC(F)(F)F)cc2)C1 (centres undefined),nt,-3%,nt,1%,nt
Cc1ccccc1CC(=O)NCCN1CCCCC1,-7%,4%,2%,21%,-1%
Cc1ccc(NS(=O)(=O)c2ccc3c(c2)N(C)C(=O)CO3)cc1C,nt,nt,1%,nt,nt
Cc1ccc(NS(=O)(=O)c2ccc(C(=O)N3CCN(c4ccccn4)CC3)cc2)cc1,25%,12µM*,5%,13µM*,-7%
